Chains of the proteins cited; added tags and fusions are not shown.
ATP-dependent Clp protease proteolytic subunit (Bacillus subtilis (strain 168)), P80244, UniProt P80244, whole entry, looked up: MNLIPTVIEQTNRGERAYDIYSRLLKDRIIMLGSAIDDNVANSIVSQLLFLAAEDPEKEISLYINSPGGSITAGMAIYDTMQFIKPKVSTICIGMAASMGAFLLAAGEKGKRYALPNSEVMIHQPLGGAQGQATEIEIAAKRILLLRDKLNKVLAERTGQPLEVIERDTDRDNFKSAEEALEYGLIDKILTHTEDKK

# Screening results (PubChem BioAssay)
# An excerpt weighted towards active compounds, which were near 3.7% of everything screened.
# ClpP mod: qHTS Assay for Activators of ClpP | purified B. subtilis ClpP, FRET peptide cleavage, 20 min | Potency, µM (highest dose often 57.5 µM) | ATP-dependent Clp protease proteolytic subunit (Bacillus subtilis (strain 168)), P80244 | hit rate 1.9% among 340,000; active = well fitted falling curve with a large enough effect; inconclusive = small, poorly fitted or top-dose-only effect; inactive = no such curve, though single readings can be large or run the other way; note: the source files actives as falling curves though it sought activators and does not explain the sign; nearly all actives have a fitted effect of over 65% in size
#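 ClpP 10 microg/mL final, pH 8 Tris/KCl buffer with BSA, glycerol, Tween-20; compound pinned in; FRET-FV substrate; RT 20 min; Ex320/Em430; ΔFRET vs ADEP 5.8 microM, DMSO, no enzyme.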
# miR-21 reporter: raises the signal of a miR-21 reporter. Potency, µM (highest dose often 38.3 µM). 340,000 tested, under 10 active. HeLa miR-21 FLuc reporter, luciferase, 48 h; active = well fitted rising curve with a large enough effect; inconclusive = small, poorly fitted or top-dose-only effect; inactive = no such curve, though single readings can be large or run the other way;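 further: miR-21 action dims this reporter so a rising signal means less miR-21 action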
#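 Luminescence from a firefly luciferase reporter carrying a miR-21 binding site downstream, stably expressed under a CMV promoter in HeLa cells that make miR-21 endogenously, reports miRNA modulation after 48 h compound exposure up to approximately 40uM final.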
# Nrf2 activator: Nrf2 pathway activation; AREc32 ARE-luciferase reporter (MCF7-derived line), luminescence, 24 h; Potency, µM (top dose mostly 46.1 µM), most hits filed as activators; hit rate 0.31% among 410,000; AID 624171; note: nearly all actives have a fitted effect of over 65% in size
#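 Steps: seed AREc32_Fluc cells (1000/well, 5% FBS OPTI-MEM); incubate overnight at 37 deg C; add 23 nL compound; incubate 24 hr; add Steady-Glo; hold 30 min RT; read luminescence.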
# Nrf2 block: inhibitors of Nrf2 signaling; A549 ARE-Fluc reporter, luciferase luminescence, 18-24 h; Potency, µM (doses to about 46 µM), hits mostly inhibitors; hit rate 2.1% among 360,000; AID 504444; note: nearly all actives have a fitted effect of over 60% in size
#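 Cells were seeded and rested 2 h, then exposed to compounds for 18-24 h. CellTiter-Fluor was read first as a viability measure. BugLite was added 15 min before the final luminescent read of ARE-luciferase activity in A549 cells.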
# A549 tox: counter-screen for Nrf2 inhibitors: cytotoxicity in A549 cells; AID 504648; Potency, µM (series often up to 46 µM), most hits filed as inhibitors; A549 ARE-Fluc cells, CellTiter-Fluor viability, 18-24 h; hit rate 0.16% among 390,000
#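 Cytotoxicity counterscreen: CellTiter-Fluor fluorescence was measured in A549 ARE_Fluc cells after 18-24 h of compound exposure in a concentration series. The subsequent BugLite luminescent read reports ARE-luciferase activity.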
# p53 reactivation: restores transcriptional activity of mutant p53 | Potency, µM (highest dose often 92.2 µM), actives largely listed as activators | AID 504706 | H1299 p53-A138V BP100-luciferase reporter, luminescence, 24 h | hit rate 0.063% among 320,000; note: nearly all actives have a fitted effect of over 45% in size
#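 H1299 (p53-null), stable ts p53-A138V + BP100-Luc; 1000 cells/well, Opti-MEM/10% FBS; cpd 4 pt, 1:5; 24 h, 37 deg C, 5% CO2; detection reagent 10 min RT; luminescence.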
# Hits are given with their value; – = inactive; ? = inconclusive; · = no result; [ ] = remark or other dose. Unless noted, calls come from the whole dose curve; as a rule, active = well fitted curve in the direction sought with a large enough effect; inconclusive = small, poorly fitted or top-dose-only effect, or another doubt; inactive = no such curve, though single readings can be large; an effect the other way counts as inactive or inconclusive.
SMILES,ClpP mod,miR-21 reporter,Nrf2 activator,Nrf2 block,A549 tox,p53 reactivation
CCN1C(=O)/C(=C\C=C2/C=CC=CN2CC)SC1=S,?,–,–,?,14.6µM,?
O=C(C[N+]12CCCc3cccc(c31)CCC2)c1ccc2ccc3cccc4ccc1c2c34,–,·,·,·,·,·
CCC(COC(=O)Nc1cccc(C)c1)NC(=O)OCC(C)C (stereo not given),10µM,–,–,–,–,?
Fc1cccc(Cl)c1CNc1n[nH]c(-c2ccco2)n1,–,–,?,?,–,·
CC(=O)c1ccc(N2CCN(c3ncnc4onc(-c5ccc(Cl)cc5)c34)CC2)cc1,–,–,–,–,–,·
O=C(O)c1c2c(nc3ccccc13)CCCCC2,–,–,–,–,–,–
Nc1c2c(nc3ccn(Cc4ccccc4)c(=O)c13)CCC2,31.6µM,–,–,–,–,–
Nc1c2c(nc3ccn(-c4ccccc4)c(=O)c13)CCCCC2,28.2µM,–,–,–,–,–
COc1cc(C(=O)C(=O)N2CCN(c3ccccc3)CC2)cc(OC)c1OC,–,·,·,·,·,·
Cn1c(=O)c2c(nc(Cl)n2CC(=O)NC2(C#N)CCCCC2)n(C)c1=O,28.2µM,·,–,–,–,–
CC(=O)NN1C(=O)/C(=C\c2ccc(Br)o2)SC1=S,–,–,15.8µM,–,–,?
Cc1nc(SCC(=O)Nc2c(C)n(C)n(-c3ccccc3)c2=O)nc(C)c1C,–,–,–,–,–,–
COc1ccc2c(CC(=O)Nc3c(C)n(C)n(-c4ccccc4)c3=O)coc2c1,–,–,–,·,–,–
COc1ccc2c(C)cc(SCC(=O)Nc3c(C)n(C)n(-c4ccccc4)c3=O)nc2c1,25.1µM,–,–,–,–,–
Cc1c(NC(=O)CSc2nc(N)cc(N)n2)c(=O)n(-c2ccccc2)n1C,28.2µM,·,–,–,–,–
Cc1c(NC(=O)COC(=O)c2cc3c4ccccc4n(C)c3s2)c(=O)n(-c2ccccc2)n1C,25.1µM,–,–,–,–,–
CC1=C(C(=O)NCc2cccc(Br)c2)C2(CCCCC2)OC1=O,–,–,–,–,–,·
COc1cc2nc(N3CCCCC3)nc(NC3CCN(C)CC3)c2cc1OC,–,·,·,·,·,·
CCOC(=O)c1ccc(NC(=O)c2ccc(-c3cccc(Cl)c3C)o2)cc1,–,–,–,–,–,·
CC(CCc1ccccn1)C(=O)c1ccccc1 (stereo not given),–,·,–,–,–,·
O=C(c1ccccc1)C(CCc1ccccn1)CCc1ccccn1,3.55µM,·,–,?,–,·
COc1ccc(C2Nc3ccccc3C(=O)N2Cc2ccccc2C)cc1COc1ccc(NC(C)=O)cc1 (stereo not given),·,·,·,?,–,·
CC1CCCC(C)N1CCCNC(=O)c1nn(C)c2c1CSc1ccccc1-2 (stereo not given),–,–,–,?,–,–
CCCCNC(=O)c1nn(C)c2c1CSc1ccccc1-2,–,–,–,20.6µM,–,·
CCOc1ccccc1NC(=O)c1nn(C)c2c1CSc1ccccc1-2,–,–,–,18.4µM,–,·
SMILES,ClpP mod,miR-21 reporter,Nrf2 activator,Nrf2 block,A549 tox,p53 reactivation
C=CCN1C(c2ccc(Br)cc2)=CS/C1=C(\C#N)c1nnc(N2CCOCC2)n1-c1ccccc1,·,·,–,25.9µM,?,·
C=CCN1C(c2cccc(C(F)(F)F)c2)=CS/C1=C(\C#N)c1nnc(N2CCOCC2)n1-c1ccccc1,–,·,–,·,·,·
Cc1ccc(C)c(NC(=O)Nc2cc3c(cc2N2CCCCC2)n(C)c(=O)n3C)c1,–,–,–,?,–,·
CC(=O)c1cccc(NS(=O)(=O)c2c(C)nc3sc(C)cn3c2=O)c1,–,–,–,–,–,·
Cc1cn2c(=O)c(S(=O)(=O)NCc3ccccc3Cl)c(C)nc2s1,15.8µM,–,–,–,–,·
Cc1cn2c(=O)c(S(=O)(=O)NCc3ccc(F)cc3)c(C)nc2s1,31.6µM,–,–,–,–,·
O=C(COC(=O)c1c[nH]c2ccccc12)Nc1ccccc1,–,·,–,–,–,–
CC(NC(=O)COC(=O)CCc1ccccc1)c1ccccc1 (stereo not given),–,–,–,?,23.1µM,–
CC(NC(=O)COC(=O)CSCc1ccccc1)c1ccccc1 (stereo not given),·,–,–,–,–,–
CC(NC(=O)COC(=O)c1c[nH]c2ccccc12)c1ccccc1 (stereo not given),–,·,–,20.6µM,–,–
CCc1sc(-c2cc3cccc(OC)c3oc2=O)nc1-c1ccccc1,14.1µM,·,·,–,–,·
Cc1ccc(CN(C(=O)N2CCN(C)CC2)S(=O)(=O)c2ccc(C)cc2)cc1,–,·,–,–,–,–
Cc1ccc(S(=O)(=O)N(Cc2cccc(Cl)c2)C(=O)N2CCN(C)CC2)cc1,14.1µM,·,–,–,–,–
COc1cccc(N2CCN(C(=O)c3ccc(Cn4c(=O)[nH]c5cc(OC)c(OC)cc5c4=O)cc3)CC2)c1,–,?,–,–[9.27 µM],–,·
CCCCCCCCCC[n+]1cc(Br)cc(Br)c1,–,·,·,·,·,·
COc1ccc(C(CNC(=O)C(C)Oc2ccc(Br)cc2)N2CCOCC2)cc1 (stereo not given),28.2µM,·,–,–,–,–
Cc1cccc(OCC(=O)Nc2ccc3nc(Nc4cccc(C(F)(F)F)c4)cc(C)c3c2)c1,–,–,–,–,–,·
COc1ccccc1CC(=O)Nc1ccc2nc(Nc3cccc(Cl)c3)cc(C)c2c1,–,–,–,?,–,·
COc1ccc(CC(=O)Nc2ccc3nc(Nc4cccc(Cl)c4)cc(C)c3c2)cc1,–,–,–,25.9µM,?,·
Cc1cc(Nc2cccc(C(F)(F)F)c2)nc2ccc(NC(=O)Cc3ccc(Cl)cc3)cc12,–,?,–,16.4µM,?,·
Cc1ccc(C(=O)NCC(=O)OC(C(=O)Nc2cc(C(F)(F)F)ccc2Cl)c2ccccc2)cc1 (stereo not given),·,·,·,?,–,·
COc1ccc(CNC(=O)c2nc(S(=O)(=O)Cc3ccccc3)ncc2Cl)cc1,–,?,–,18.4µM,?,–
CCNC(=O)c1c(NC(=O)c2nc(S(=O)(=O)CC)ncc2Cl)sc2c1CCCC2,–,?,–,20.6µM,20.6µM,·
O=C(NCc1ccccc1)c1nc(S(=O)(=O)Cc2ccccc2)ncc1Cl,–,?,–,?,?,–
CCS(=O)(=O)c1ncc(Cl)c(C(=O)NCc2ccccc2)n1,–,?,–,18.4µM,?,·
COC(=O)C[C@H]1c2cc(F)ccc2S(=O)(=O)N1C1CC1,–,·,·,·,·,·
Cn1c2ccccc2c2ncn(CCN3CCOCC3)c(=O)c21,31.6µM,–,–,?,–,–
Cc1nc2ccc(NC(=O)N3CCCCC3)cc2nc1C,14.1µM,–,–,–,–,–
